Values of other authors in patent US20140023701A1, “Method and Composition for Ameliorating the Effects tor a Subject Exposed to Radiation or Other Sources of Oxidative Stress” (priority 2011, published 2014).

Assays:
Human [1] = settings: tolerable upper intake level, daily intake
Human [2] = tested on: Human

Row | Substance | Human UL (19-70 yo group) (Human [1]) [mg] | Human NOAEL (Human [2]) [mg]
1 | Boron | 20 | –
2 | thiamine mononitrate | – | 50
